Assay results published in ChEMBL document CHEMBL1144846, “Herkinorin analogues with differential beta-arrestin-2 interactions” (J Med Chem, 2008).

By UniProt entry, the sequences of proteins in these tests, tags left out.
UniProt P35372, whole entry, looked up: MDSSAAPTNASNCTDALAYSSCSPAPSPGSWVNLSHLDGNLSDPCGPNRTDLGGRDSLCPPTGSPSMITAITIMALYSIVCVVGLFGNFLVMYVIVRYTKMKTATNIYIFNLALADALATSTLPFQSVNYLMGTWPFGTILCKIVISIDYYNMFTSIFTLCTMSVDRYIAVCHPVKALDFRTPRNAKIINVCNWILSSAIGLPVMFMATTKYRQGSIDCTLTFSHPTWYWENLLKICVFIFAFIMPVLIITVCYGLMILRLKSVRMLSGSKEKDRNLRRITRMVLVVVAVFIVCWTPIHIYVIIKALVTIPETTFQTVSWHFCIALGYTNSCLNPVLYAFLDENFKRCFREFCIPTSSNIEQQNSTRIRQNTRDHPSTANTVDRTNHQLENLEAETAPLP

Target: Mu-type opioid receptor (Homo sapiens, UniProt P35372)
Test: Agonist activity at human recombinant mu opioid receptor expressed in CHO cells by [35S]GTP-gamma-S binding assay

Compound: CN(C(=O)Cc1ccc(Cl)c(Cl)c1)C1CCCCC1N1CCCC1 (stereo unspecified)
- EC50: 4.84 µM
